{"sequences": {"note": "Protein sequences, listed by entry. Tags and fused reporters are not part of them.", "UniProt P30989, whole entry": "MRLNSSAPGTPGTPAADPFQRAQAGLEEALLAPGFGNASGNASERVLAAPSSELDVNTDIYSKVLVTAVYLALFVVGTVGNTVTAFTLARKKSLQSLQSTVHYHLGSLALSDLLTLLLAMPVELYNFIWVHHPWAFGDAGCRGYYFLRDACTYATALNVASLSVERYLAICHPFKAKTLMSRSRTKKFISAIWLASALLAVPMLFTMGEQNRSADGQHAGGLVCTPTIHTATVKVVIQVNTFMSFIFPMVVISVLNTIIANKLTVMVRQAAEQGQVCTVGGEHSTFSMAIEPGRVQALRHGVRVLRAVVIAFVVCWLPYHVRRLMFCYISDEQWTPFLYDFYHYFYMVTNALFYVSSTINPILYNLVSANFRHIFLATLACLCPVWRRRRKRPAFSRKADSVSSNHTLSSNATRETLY"}, "source": "paper PMC5460915", "about": "(Molecular pharmaceutics, 2015)", "biological_target": "NTR1 (NTR1-positive HT-29 cells) (Homo sapiens, UniProt P30989)", "test": "In vitro competitive cell binding assay against 125I-NT", "details": "as supported by the similar IC50 values"}
{"substance": "pGlu-Leu-Tyr-Glu-Asn-Lys-Pro-Arg-Arg-Pro-Try-Ile-Leu [NT, reference compound]", "values": [{"measurement": "binding affinity compared between DOTA-NT-Cy5.5 and NT (in words)", "result": "not significantly different"}]}
